Source: US20060241172A1, “Benzodioxane and benzodioxolane derivatives and uses thereof” (Wyeth, priority 2005, published 2006)

Chains of the proteins cited; added tags and fusions are not shown. Residues count along the entry.
UniProt P28335, 33-458 limits assumed: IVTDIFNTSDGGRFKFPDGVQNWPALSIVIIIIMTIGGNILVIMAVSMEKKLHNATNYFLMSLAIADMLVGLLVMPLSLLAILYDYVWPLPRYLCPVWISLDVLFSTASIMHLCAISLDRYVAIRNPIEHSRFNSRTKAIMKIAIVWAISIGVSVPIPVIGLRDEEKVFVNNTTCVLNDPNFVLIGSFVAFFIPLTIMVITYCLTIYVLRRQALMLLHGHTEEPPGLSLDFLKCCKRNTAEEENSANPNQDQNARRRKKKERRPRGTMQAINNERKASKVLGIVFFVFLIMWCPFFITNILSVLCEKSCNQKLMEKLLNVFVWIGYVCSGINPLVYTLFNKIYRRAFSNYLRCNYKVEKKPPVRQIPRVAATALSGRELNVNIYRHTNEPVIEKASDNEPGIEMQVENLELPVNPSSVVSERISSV

Assays:
[1] = biological target: human 5-hydroxytryptamine-2C (h5-HT2C) receptor (Homo sapiens, UniProt P28335); test: 5-HT2C binding: [125I]DOI displacement in membranes of transfected CHO cells; settings: read-out: 5-HT2C Binding Ki avg; tested form: HCl
human 5-HT2C receptor = human 5-HT2C receptor (Homo sapiens, UniProt P28335); test: 5-HT2C receptor-stimulated calcium mobilization (FLIPR) in CHO cells; format: cell-based; settings: tested form: HCl

Cc1ccccc1-c1c(F)ccc2c1O[C@@H](CN)CO2
Ki [1]: < 50 nM | 5-HT2C Function EMax (%) (human 5-HT2C receptor; percentage of the response to a maximally effective concentration of 5-HT): 40% | EC50 (human 5-HT2C receptor; read-out: 5-HT2C Function EC50): < 100 nM
